Values of other authors as cited in publication PMC10892142, “Synthesis and In Vitro Antitumor Activity Evaluation of Gefitinib-1,2,3-Triazole Derivatives” (Molecules, 2024).

System: advanced NSCLC with EGFR mutations
Set-up: method as in PMID 17047648
Settings: 16 patients, first-line treatment; cited from earlier work

Structure (SMILES): COc1cc2ncnc(Nc3ccc(F)c(Cl)c3)c2cc1OCCCN1CCOCC1 [Gefitinib, gefitinib]
- response rate: 75%
